# According to PMC2914686 (Chemistry & biology, 2010):
# Biological target: T1, G9a (Homo sapiens, UniProt Q96KQ7)
# T1 sequence (Q96KQ7 913-1193): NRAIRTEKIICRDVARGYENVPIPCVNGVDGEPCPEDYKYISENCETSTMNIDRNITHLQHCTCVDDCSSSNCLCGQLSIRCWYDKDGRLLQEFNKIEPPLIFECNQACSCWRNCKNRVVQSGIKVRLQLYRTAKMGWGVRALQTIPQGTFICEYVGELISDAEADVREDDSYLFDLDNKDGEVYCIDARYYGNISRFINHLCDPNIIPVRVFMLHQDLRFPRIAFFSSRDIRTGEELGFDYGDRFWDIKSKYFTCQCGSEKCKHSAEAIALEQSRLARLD
# Experiment: Endo-LysC-coupled microfluidic capillary electrophoresis methyltransferase assay
# Format: biochemical
smiles,measurement,value
COc1cc2c(NC3CCN(C)CC3)nc(N3CCCN(C)CC3)nc2cc1OCCCN(C)C [UNC0224],Ki,1.6 nM
